{"sequences": {"note": "Protein sequences, listed by entry. Tags and fused reporters are not part of them. Residues count along the entry.", "UniProt P56817, 46-501 limits assumed": "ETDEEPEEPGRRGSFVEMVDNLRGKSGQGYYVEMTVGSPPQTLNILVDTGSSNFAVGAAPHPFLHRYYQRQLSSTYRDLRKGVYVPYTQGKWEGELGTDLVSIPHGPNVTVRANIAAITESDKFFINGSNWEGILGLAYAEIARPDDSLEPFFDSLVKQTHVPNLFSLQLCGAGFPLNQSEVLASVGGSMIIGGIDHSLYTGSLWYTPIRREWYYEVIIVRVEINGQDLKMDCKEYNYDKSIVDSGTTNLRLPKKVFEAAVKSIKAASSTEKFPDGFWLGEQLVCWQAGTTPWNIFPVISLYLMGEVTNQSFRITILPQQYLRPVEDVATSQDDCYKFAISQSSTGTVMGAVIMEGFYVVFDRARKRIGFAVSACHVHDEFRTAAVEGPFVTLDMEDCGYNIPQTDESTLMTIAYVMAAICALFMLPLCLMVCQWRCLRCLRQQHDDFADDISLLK"}, "source": "patent US7514408B1", "about": "“β-secretase enzyme compositions and methods” (Elan Pharmaceuticals, Inc., priority 1999, dated 2009)", "target": "β-secretase (Homo sapiens, UniProt P56817)", "assay": "MBP C125 assay of peptide inhibitors", "conditions": "read-out: IC50 Group, heptamer peptides", "data": [{"smiles": "CCCC[C@H](NC(=O)[C@@H](NC(C)=O)C(C)C)C(=O)N[C@@H](CC(C)C)[C@@H](O)CC(=O)N[C@H](C(=O)N[C@@H](C)C(=O)N[C@@H](CCC(=O)O)C(=O)N[C@@H](Cc1ccccc1)C(=O)O)C(C)C", "values": [{"measurement": "IC50", "value": "< 1", "unit": "µM"}]}]}
